Measurements as given in PubChem BioAssay (NCI).
This is a selection; strong and weak results do not stand in their true shares.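 96-well plates, one dose, 48 hours. Percent growth reported; active if below 10.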 Activity calls are given as the source filed them.

Experiments:
Assay in all cases: NCI-60 one-dose screen, 48 h (100 = growth as untreated, 0 = no growth, -100 = all killed)
Conditions in all cases: 10 µM unless noted
NCI/ADR-RES ovarian = system: NCI/ADR-RES ovarian
BT-549 breast = system: BT-549 breast
MDA-MB-435 melanoma = system: MDA-MB-435 melanoma
SW-620 colon = system: SW-620 colon
MCF7 breast = system: MCF7 breast
HCT-116 colon = system: HCT-116 colon
HCC-2998 colon = system: HCC-2998 colon
KM12 colon = system: KM12 colon
T-47D breast = system: T-47D breast

Measured: growth

CSc1ccc(Nc2c([N+](=O)[O-])cc([N+](=O)[O-])cc2[N+](=O)[O-])cc1
inactive: NCI/ADR-RES ovarian 41.3% | BT-549 breast 80.9% | MDA-MB-435 melanoma 87.8% | SW-620 colon 44.7% | MCF7 breast 32.7% | HCT-116 colon 51% | HCC-2998 colon 78.9% | KM12 colon 61.5%

CC(C)=N/N=C(\N)N[N+](=O)[O-]
inactive: T-47D breast 94.9% | BT-549 breast 119% | MDA-MB-435 melanoma 99.2% | SW-620 colon 110% | MCF7 breast 96.5% | HCT-116 colon 105% | HCC-2998 colon 105% | KM12 colon 104%

CC(/C=N/N=C(\N)N[N+](=O)[O-])=N\N=C(/N)N[N+](=O)[O-]
inactive: T-47D breast 99.7% | BT-549 breast 107% | MDA-MB-435 melanoma 110% | SW-620 colon 103% | MCF7 breast 94.1% | HCT-116 colon 103% | HCC-2998 colon 100% | KM12 colon 110%

O=[N+]([O-])c1ccc(Oc2cccc(Oc3ccc([N+](=O)[O-])cc3[N+](=O)[O-])c2)c([N+](=O)[O-])c1
inactive: NCI/ADR-RES ovarian 77.5% | MDA-MB-435 melanoma 72.5% | SW-620 colon 53% | MCF7 breast 74.7% | HCT-116 colon 62.9% | HCC-2998 colon 112% | KM12 colon 88.2%

CCOC(=O)NC(C)(CCC(C)(NC(=O)OCC)P(=O)(O)Nc1ncccn1)P(=O)(O)Nc1ncccn1 (stereo not given)
inactive: NCI/ADR-RES ovarian 101% [100 µM] | T-47D breast 107% [100 µM] | BT-549 breast 117% [100 µM] | MDA-MB-435 melanoma 102% [100 µM] | SW-620 colon 106% [100 µM] | MCF7 breast 90.9% [100 µM] | HCT-116 colon 104% [100 µM] | KM12 colon 102% [100 µM]

Cc1c([N+](=O)[O-])cc(C(=O)c2cc([N+](=O)[O-])cc([N+](=O)[O-])c2)cc1[N+](=O)[O-]
inactive: NCI/ADR-RES ovarian 91.5% | T-47D breast 113% | BT-549 breast 83.2% | MDA-MB-435 melanoma 104% | SW-620 colon 111% | MCF7 breast 82.7% | HCT-116 colon 92% | KM12 colon 110%

O=[As](O)(c1ccccc1Br)c1ccccc1Br
inactive: NCI/ADR-RES ovarian 107% | T-47D breast 90.8% | BT-549 breast 102% | MDA-MB-435 melanoma 110% | SW-620 colon 100% | MCF7 breast 103% | HCT-116 colon 103% | KM12 colon 102%

CCOC(=O)N1CCN(CCCl)CC1
inactive: NCI/ADR-RES ovarian 103% | T-47D breast 84.6% | MDA-MB-435 melanoma 103% | SW-620 colon 111% | MCF7 breast 90.9% | HCT-116 colon 103% | HCC-2998 colon 106% | KM12 colon 101%

CCN(CCCl)C1c2ccccc2-c2ccccc21
inactive: NCI/ADR-RES ovarian 97.9% | T-47D breast 85.8% | MDA-MB-435 melanoma 97.6% | SW-620 colon 96.1% | MCF7 breast 89.7% | HCT-116 colon 99.7% | HCC-2998 colon 102% | KM12 colon 100%

CCCOP(=S)(Nc1nc(N)cc(=O)[nH]1)OCCC
inactive: NCI/ADR-RES ovarian 101% | T-47D breast 86.3% | MDA-MB-435 melanoma 99.3% | SW-620 colon 104% | MCF7 breast 102% | HCT-116 colon 100% | HCC-2998 colon 101% | KM12 colon 95.4%

CCN(CCCl)Cc1cccc2ccccc12
inactive: NCI/ADR-RES ovarian 114% | T-47D breast 96.7% | MDA-MB-435 melanoma 109% | SW-620 colon 98.4% | MCF7 breast 95.9% | HCT-116 colon 103% | HCC-2998 colon 108% | KM12 colon 104%

CC(=O)NC(C)C(=O)N(CC(C)Cl)CC(C)Cl (stereo not given)
inactive: T-47D breast 89% | BT-549 breast 107% | MDA-MB-435 melanoma 101% | SW-620 colon 103% | MCF7 breast 92.5% | HCT-116 colon 99.5% | HCC-2998 colon 107% | KM12 colon 110%

C=NNc1ccc([N+](=O)[O-])cc1[N+](=O)[O-]
inactive: NCI/ADR-RES ovarian 90.5% | MDA-MB-435 melanoma 89.9% | SW-620 colon 97.1% | MCF7 breast 83% | HCT-116 colon 90.6% | HCC-2998 colon 100% | KM12 colon 68.9%

NNc1ccc([N+](=O)[O-])cc1[N+](=O)[O-]
inactive: NCI/ADR-RES ovarian 105% | T-47D breast 78.3% | MDA-MB-435 melanoma 99.4% | SW-620 colon 99.6% | MCF7 breast 99.2% | HCT-116 colon 93.3% | HCC-2998 colon 104% | KM12 colon 96%
